Tolerability in mice data for one compound are collected here from patent US11098072B2, “Alkenyl and beta-substituted phosphonates as antimicrobial agents” (The George Washington University, priority 2017, dated 2021).

For this data set, the system named is P. berghei ANKA. Briefly: P. berghei-infected mouse model of malaria. The settings on record: 20 and 50 mg/kg i.p. daily for five days.

Regarding `CC(C)(C)C(=O)OCOP(=O)(/C=C/CN(O)C=O)OCOC(=O)C(C)(C)C` [Compound 18a, [({[(2,2-dimethylpropanoyl)oxy]methoxy}[(1E)-3-(N-hydroxyformamido)prop-1-en-1-yl]phosphoryl)oxy]methyl 2,2-dimethylpropanoate], the tolerability in mice result is reported as “no adverse effects were observed”.
